# Experimental data published in US20060151574A1, “Formulations useful against hepatitis C virus infections” (priority 2002, published 2006).
# Test system: replicon cells
# Assay: Cytotoxic effects on replicon cells
compound,measurement,setting,value
"CC1=C(/C=C/C(C)=C/C=C/C(C)=C/C(=O)O)C(C)(C)CCC1 [ATRA, all trans retinoic acid]",Severe cytotoxic effects,all trans retinoic acid and sodium selenite in combination,neither observed
same,Severe cytotoxic effects,substance alone,neither observed
